Assay results published in BindingDB's records for doi:10.1124/mol.51.1.109 (Max-Planck Institute For Experimental Medicine, 1997).

Target: T1, P2X purinoceptor 4 (Homo sapiens, UniProt Q99571)
T1 sequence (Q99571 whole entry): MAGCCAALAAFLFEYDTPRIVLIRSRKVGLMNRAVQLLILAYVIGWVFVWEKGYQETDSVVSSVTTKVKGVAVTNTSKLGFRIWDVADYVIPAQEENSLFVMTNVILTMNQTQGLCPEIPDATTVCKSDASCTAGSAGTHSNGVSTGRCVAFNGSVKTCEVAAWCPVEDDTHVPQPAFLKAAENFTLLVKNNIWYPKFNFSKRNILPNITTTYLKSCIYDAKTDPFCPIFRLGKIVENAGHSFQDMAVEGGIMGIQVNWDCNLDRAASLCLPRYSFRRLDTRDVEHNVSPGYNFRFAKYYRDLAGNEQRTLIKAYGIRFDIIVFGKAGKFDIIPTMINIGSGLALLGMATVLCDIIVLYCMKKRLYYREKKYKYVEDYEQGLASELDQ

| Ki | SMILES |
| --- | --- |
| 27.5 nM | Cc1nc(/N=N/c2ccc(S(=O)(=O)O)cc2S(=O)(=O)O)c(COP(=O)(O)O)c(C=O)c1O |
| 39.2 nM | Nc1c(S(=O)(=O)O)cc(Nc2ccc(Nc3nc(Cl)nc(Nc4ccccc4S(=O)(=O)O)n3)c(S(=O)(=O)O)c2)c2c1C(=O)c1ccccc1C2=O |
